Assay results taken from ChEMBL document CHEMBL1144753, “Inhibitors of DNA polymerase beta: activity and mechanism” (Bioorg Med Chem, 2008).

Legend:
[1] = target: DNA polymerase beta (Rattus norvegicus) (UniProt P06766); experiment: Inhibition of polymerase activity of DNA polymerase beta
[2] = target: DNA polymerase beta (Rattus norvegicus) (UniProt P06766); experiment: Inhibition of lyase activity of DNA polymerase beta

Row | SMILES | IC50 [1] | IC50 [2]
1 | C=C(C)[C@@H]1CC[C@]2(C(=O)O)CC[C@]3(C)[C@H](CC[C@@H]4[C@@]5(C)CC[C@H](O)C(C)(C)[C@@H]5CC[C@]43C)[C@@H]12 [BETULINIC ACID] | 46.2 µM | 33.7 µM
2 | O=c1ccc2ccc(Oc3cc4ccc(O)cc4oc3=O)cc2o1 [EDGEWORIN] | 31.4 µM | 38.9 µM
